# Results taken from patent publication US20070254863A1 (published 2007).
# Sequences of proteins named here, by UniProt entry; tags and fusion partners are left off.
# UniProt P34972, whole entry: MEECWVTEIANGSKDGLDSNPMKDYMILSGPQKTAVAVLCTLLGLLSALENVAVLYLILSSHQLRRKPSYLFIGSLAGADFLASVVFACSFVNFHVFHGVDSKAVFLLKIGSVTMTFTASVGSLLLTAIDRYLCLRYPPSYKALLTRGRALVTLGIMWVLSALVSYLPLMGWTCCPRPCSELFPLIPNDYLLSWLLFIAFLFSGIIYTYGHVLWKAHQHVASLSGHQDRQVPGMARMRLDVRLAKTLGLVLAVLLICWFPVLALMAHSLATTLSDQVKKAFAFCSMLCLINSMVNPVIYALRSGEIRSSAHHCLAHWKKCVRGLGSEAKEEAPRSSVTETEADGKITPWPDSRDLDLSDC
# Biological target: human cannabinoid CB2 receptor (Homo sapiens, UniProt P34972)
# Assay: biochemical
compound,measurement,value
"CCCCCCC(C)(C)c1cc(OC)c(C2C=C(CO)[C@H]3C[C@@H]2C3(C)C)c(OC)c1 (stereo in doubt) [HU308, {4-[4-(1,1-Dimethyl-heptyl)-2,6-dimethoxy-phenyl]-6,6-dimethyl-bicyclo[3.1.1]hept-2-en-2-yl}-methanol, reference compound]",Ki,15.8 nM
